Measured values published in patent publication US8609638B2, “Enzyme inhibiting compounds and methods” (priority 2009, dated 2013).

By UniProt entry, the sequences of proteins in these tests, tags left out.
UniProt O67625, whole entry: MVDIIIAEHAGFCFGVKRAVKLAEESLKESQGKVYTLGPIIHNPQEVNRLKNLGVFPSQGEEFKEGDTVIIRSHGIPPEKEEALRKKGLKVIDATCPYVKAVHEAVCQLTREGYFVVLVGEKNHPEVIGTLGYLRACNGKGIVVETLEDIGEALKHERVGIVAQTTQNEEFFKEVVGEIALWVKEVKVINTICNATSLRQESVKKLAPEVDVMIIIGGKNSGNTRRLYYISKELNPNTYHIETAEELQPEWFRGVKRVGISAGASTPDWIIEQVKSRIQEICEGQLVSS

These compounds were tested against IspH (LytB), E-4-hydroxy-3-methyl-but-2-enyl diphosphate reductase (Aquifex aeolicus, UniProt O67625). Conditions: IspH inhibition; Ki deduced from IC50 by Cheng-Prusoff equation.

SMILES	Ki [µM]
O=P(O)(O)OP(=O)(O)OCc1cccnc1	3.2
O=P(O)(O)C(CCCCS)P(=O)(O)O	89
O=P(O)(O)OP(=O)(O)OCCC1CO1 (stereo not shown)	66
Cc1ccnc(NC(P(=O)(O)O)P(=O)(O)O)c1	14
